According to patent US20040197222A1 (priority 2002, published 2004):

Test system: 10^5 of B. stearothermophilus ATCC # 7953
Experiment: Trailer field fumigation, combined-species spore strips incubated for B. stearothermophilus
Type: cell-based, Bacillus stearothermophilus
Conditions: 303.7 oz/1,000 ft^3, 48 hours

Measured: incubation result 10^5 B. stear.

CBr [methyl bromide]
pass: trailer loc. 1-Floor vent, inside ducting | trailer loc. 2-Under carpet fabric | trailer loc. 4-Wall plug outlet, covered | trailer loc. 5-Wall surface, in closed folder | trailer loc. 20-Recliner chair, under cover fabric
